# Experimental data as given in patent US5519029A, “2-aminoalkyl-5-aminoalkylamino substituted-isoquinoindazole-6(2H)-ones” (Boehringer Mannheim Italia, S.p.A., priority 1993, dated 1996).
# Key:
# Lovo/DX = test: MTT cytotoxicity assay, multidrug-resistant subline Lovo/DX; format: cell-based, human; details: ratio of the IC50 for the resistant line cell to the IC50 for the sensitive cell line
# Method: The evaluation of the biological activity for the compounds of this invention was performed in vitro and in vivo following the protocols developed by the U.S. National Cancer Institute.
# The evaluation of the in vitro cytotoxic activity of the compounds of the invention was performed using a human colon adenocarcinoma cell line (Lovo) isolated from a metastatic nodule, and a subline expressing multidrug resistance. The subline is resistant to a number of antitumor agents, among which are doxorubicin, VP-16, and vincristine.
# [1] = tested on: cell histotypes developing resistance against doxorubicin mediated by overexpression of glycoprotein P; details: doxorubicin-resistant cells; cited from earlier work
smiles,measurement,setting,value
"O=C1c2c(O)ccc(O)c2C(=O)c2c(NCCNCCO)ccc(NCCNCCO)c21 [MITOXANTRONE, 5,8-dihydroxy-1,4-bis{[2-(2-hydroxyethylamino)ethyl]amino}anthracene-9,10-dione]",RI (resistance index),Lovo/DX,22.5
same,cross-resistance (in words),[1],cross-resistance
